From ChEMBL document CHEMBL4354824, “4-Aryl-1-oxa-4,9-diazaspiro[5.5]undecane Derivatives as Dual μ-Opioid Receptor Agonists and σ1 Receptor Antagonists for the Treatment of Pain” (J Med Chem, 2020)

Sequences of proteins named here, by UniProt entry; tags and fusion partners are left off.
UniProt Q99720, whole entry, looked up: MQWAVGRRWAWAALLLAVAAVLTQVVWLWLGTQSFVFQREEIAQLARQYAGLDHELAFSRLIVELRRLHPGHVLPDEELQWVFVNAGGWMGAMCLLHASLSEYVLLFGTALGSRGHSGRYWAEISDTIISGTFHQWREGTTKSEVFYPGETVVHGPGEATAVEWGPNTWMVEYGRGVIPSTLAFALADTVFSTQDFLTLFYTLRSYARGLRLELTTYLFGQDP
UniProt P35372, whole entry, looked up: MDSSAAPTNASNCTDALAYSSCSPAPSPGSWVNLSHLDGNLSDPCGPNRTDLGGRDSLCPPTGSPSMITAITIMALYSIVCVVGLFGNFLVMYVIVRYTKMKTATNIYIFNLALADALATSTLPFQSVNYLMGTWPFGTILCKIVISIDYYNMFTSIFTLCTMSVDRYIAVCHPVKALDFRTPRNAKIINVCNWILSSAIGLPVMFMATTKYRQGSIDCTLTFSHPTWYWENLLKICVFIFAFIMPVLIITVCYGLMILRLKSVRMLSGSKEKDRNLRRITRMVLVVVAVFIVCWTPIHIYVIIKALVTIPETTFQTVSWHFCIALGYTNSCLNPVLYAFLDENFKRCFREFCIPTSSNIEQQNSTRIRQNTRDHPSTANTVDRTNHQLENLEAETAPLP

What was measured:
[1] = molecular target: Sigma non-opioid intracellular receptor 1 (Homo sapiens, UniProt Q99720); settings: hek293
[2] = molecular target: T1, Mu-type opioid receptor (Homo sapiens, UniProt P35372)
[3] = molecular target: T1, Mu-type opioid receptor; assay: Agonist activity at human MOR expressed in CHOK1 cells assessed as […] of cAMP accumulation incubated for 45 mins by HTRF assay

Compound `O=C1COC2(CCN(CCc3ccccc3)CC2)CN1c1ccccc1` has a Ki [1] of 57 nM, a Ki [2] of 437 nM and an EC50 [3] of 523 nM.
